Data taken from EP4821496A1, “USE OF BENZO NITROGEN-CONTAINING HETEROAROMATIC RING DERIVATIVE IN TREATING COMPLEMENT FACTOR B-MEDIATED DISEASE” (dated 2026).

Sequences of proteins named here, by UniProt entry; tags and fusion partners are left off. Residues count along the entry.
UniProt P00751, 260-764 limits assumed: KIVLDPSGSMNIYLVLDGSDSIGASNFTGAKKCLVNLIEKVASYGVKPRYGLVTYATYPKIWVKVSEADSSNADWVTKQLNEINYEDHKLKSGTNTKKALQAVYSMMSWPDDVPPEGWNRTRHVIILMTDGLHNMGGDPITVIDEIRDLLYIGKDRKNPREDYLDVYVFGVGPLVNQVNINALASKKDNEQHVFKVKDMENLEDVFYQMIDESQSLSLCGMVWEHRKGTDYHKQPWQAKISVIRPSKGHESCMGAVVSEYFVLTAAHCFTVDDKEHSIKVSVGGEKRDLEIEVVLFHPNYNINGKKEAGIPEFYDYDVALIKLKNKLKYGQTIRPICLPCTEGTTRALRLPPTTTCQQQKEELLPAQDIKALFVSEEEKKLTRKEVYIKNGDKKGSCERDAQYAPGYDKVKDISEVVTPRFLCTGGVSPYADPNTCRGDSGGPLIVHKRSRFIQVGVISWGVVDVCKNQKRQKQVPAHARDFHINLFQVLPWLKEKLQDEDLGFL
UniProt Q91132, 23-649 partner limits assumed: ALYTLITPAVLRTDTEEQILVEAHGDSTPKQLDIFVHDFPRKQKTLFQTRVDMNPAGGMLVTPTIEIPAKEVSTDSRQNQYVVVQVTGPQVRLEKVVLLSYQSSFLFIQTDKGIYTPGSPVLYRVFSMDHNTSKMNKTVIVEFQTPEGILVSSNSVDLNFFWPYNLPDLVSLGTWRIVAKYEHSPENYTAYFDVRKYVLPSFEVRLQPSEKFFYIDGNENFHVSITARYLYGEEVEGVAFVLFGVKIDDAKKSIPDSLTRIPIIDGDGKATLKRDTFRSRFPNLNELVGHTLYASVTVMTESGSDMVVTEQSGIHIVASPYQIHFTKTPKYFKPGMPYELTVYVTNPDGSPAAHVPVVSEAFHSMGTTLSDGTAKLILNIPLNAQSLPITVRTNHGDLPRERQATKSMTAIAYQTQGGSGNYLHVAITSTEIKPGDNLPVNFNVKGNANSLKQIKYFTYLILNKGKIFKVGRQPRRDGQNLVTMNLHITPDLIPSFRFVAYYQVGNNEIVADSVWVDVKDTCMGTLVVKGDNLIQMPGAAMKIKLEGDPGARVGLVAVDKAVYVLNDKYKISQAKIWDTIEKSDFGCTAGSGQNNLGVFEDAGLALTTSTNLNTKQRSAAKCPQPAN
UniProt Q91132, 733-984 partner limits assumed: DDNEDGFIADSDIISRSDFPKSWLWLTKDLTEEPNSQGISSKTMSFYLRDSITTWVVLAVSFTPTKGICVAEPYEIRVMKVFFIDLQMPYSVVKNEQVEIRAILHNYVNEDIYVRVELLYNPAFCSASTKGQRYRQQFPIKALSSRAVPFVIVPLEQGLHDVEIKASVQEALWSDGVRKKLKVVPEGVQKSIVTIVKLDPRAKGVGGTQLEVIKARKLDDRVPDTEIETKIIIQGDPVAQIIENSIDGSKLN
UniProt Q91132, 1264-1642 partner limits assumed: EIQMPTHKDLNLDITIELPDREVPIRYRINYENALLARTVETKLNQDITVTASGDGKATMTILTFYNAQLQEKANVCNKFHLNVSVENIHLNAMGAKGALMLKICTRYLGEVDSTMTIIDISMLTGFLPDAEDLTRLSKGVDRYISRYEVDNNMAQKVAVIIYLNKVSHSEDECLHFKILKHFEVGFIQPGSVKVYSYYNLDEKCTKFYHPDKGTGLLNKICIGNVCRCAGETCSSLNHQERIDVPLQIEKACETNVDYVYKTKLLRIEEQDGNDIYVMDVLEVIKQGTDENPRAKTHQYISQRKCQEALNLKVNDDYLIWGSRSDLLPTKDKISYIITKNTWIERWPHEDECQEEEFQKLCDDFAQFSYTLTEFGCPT

Columns and labels:
[1] = target: human complement FB (Homo sapiens, UniProt P00751); assay: Effect on the enzymatic activity of complement factor B in vitro (CVFBb complex, C3a ELISA); conditions: CVFBb complex (C3 convertase), C3 substrate, C3a quantified by ELISA
[2] = test system: Fx1A-induced Heymann nephritis; assay: Anti-serum Fx1A-induced passive Heymann nephritis in rats; conditions: rats, 20, 60 and 120 mg/kg
[3] = test system: BSA-induced IgA nephritis; assay: Rat model of BSA-induced IgA nephritis; conditions: rats
[4] = target: complement alternative pathway (AP) (Homo sapiens, UniProt P00751); assay: Inhibition of alternative pathway (AP) deposition in human serum (WIESLAB AP kit, C5b-9 yield)

IC90 [1]: 140 nM
Inh%@Max dose ([4]; Max dose 5000 nM): 99.6%
IC90 ([4]; human serum diluted 30-fold, 37°C 60 minutes, C5b-9 yield): 51.6 nM
Structure (SMILES): [2H]C([2H])([2H])Oc1cc(C)c2[nH]ccc2c1CN1CC[C@@H](C2CC2)C[C@H]1c1ccc(C(=O)O)cc1
renal pathology ([2]; dose-dependent, Figure 4): reduced renal tubular injury, renal fibrosis, renal interstitial inflammation, and total renal pathological scores
activity of the serum complement marker AP ([2]; twice daily, Figure 3): inhibited the activity of the serum complement marker AP in rats in a dose-dependent manner
renal C3 deposition ([3]; 60 mg/kg, superior to LNP023 at the same dose, Figure 8): inhibited C3 deposition in rat kidneys
serum C5b-9 deposition ([3]; 20 and 60 mg/kg, experimental endpoint, Figure 6): inhibited serum C5b-9 deposition in rats in a dose-dependent manner
serum IgA level ([3]; 20 and 60 mg/kg, superior to LNP023 at the same doses, Figure 7): significantly reduced the content of IgA
